ChEMBL document CHEMBL3399971

Chains of the proteins cited; added tags and fusions are not shown.
UniProt Q3UVX5, whole entry: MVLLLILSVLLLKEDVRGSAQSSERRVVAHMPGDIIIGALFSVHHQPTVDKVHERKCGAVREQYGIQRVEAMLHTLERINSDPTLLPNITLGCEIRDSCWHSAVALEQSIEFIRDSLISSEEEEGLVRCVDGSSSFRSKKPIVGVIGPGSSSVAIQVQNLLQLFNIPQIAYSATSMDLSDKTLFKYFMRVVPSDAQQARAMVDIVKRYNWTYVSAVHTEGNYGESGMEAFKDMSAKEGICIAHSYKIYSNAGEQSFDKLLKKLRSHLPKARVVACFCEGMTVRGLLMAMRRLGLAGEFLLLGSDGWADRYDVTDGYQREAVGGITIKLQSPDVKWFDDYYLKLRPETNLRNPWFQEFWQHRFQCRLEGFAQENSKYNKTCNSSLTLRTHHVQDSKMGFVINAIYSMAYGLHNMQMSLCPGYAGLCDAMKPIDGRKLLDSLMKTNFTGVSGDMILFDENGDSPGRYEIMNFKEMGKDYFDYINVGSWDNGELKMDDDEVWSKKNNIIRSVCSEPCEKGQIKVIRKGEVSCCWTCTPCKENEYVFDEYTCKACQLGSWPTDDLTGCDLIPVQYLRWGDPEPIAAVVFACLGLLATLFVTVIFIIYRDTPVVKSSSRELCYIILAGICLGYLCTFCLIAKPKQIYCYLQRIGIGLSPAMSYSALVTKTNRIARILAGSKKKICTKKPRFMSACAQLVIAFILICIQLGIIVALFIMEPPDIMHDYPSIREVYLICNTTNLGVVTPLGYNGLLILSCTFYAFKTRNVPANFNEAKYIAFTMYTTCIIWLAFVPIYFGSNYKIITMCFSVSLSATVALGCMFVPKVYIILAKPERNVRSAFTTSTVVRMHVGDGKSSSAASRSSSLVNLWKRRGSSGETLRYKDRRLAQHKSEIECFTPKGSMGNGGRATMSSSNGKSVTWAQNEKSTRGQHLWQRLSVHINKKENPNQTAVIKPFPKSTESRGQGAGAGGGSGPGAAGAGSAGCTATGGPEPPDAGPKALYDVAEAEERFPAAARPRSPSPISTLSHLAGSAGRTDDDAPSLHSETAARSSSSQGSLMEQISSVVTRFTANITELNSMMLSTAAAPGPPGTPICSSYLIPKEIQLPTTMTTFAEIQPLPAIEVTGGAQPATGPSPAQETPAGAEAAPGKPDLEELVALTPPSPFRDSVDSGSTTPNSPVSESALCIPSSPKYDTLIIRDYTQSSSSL

Legend:
[1] = Selectivity index, ratio of MNCC against mouse BV2 cells to IC50 for mGluR5 in mouse BV2 cells; format: functional, BV-2
[2] = molecular target: Metabotropic glutamate receptor 5 (Mus musculus, UniProt Q3UVX5); assay: Positive allosteric modulator activity at mGluR5 in mouse BV2 cells assessed as inhibition of nitric oxide production pre-treated 1 hr before lipopolysaccharide stimulation and measured 24 hrs post lipopolysaccharide stimulation by Griess reagent assay; format: cell-based, BV-2
Method in brief: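 BV2 microglia grown in DMEM plus 10% FBS at 37°C, 5% CO2. Pretreated 1 h with compound in 0.02% DMSO (final), then stimulated with LPS 50 ng/ml for 24 h. Read-out is supernatant nitrite by Griess reagent as a proxy for NO. IC50 is the mean of three independent experiments.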

Structure (SMILES)	Selectivity Index [1]	IC50 [2]
O=C(Nc1nc2ccccc2[nH]1)c1cccc([N+](=O)[O-])c1	34.6	
O=C(Nc1nc2ccccc2[nH]1)c1ccncc1	20.2	49 µM
